Earlier results on one molecule are cited in patent publication US20070093969A1, “Molecular nephrotoxicology modeling” (priority 2002, published 2007).

The structures appear in SMILES notation.

In the data set the test system is tubulin. The settings on record: cited from earlier work.

`COc1cc2c(c(OC)c1OC)-c1ccc(OC)c(=O)cc1[C@@H](NC(C)=O)CC2` [colchicine, Colchicine]: the microtubule polymerization status result is “extensive microtubule depolymerization” and the total tubulin levels entry was “decreased twofold”.
